Values of other authors in patent US20090117199A1, “Method of treatment of cancer” (priority 1998, published 2009).

System: melanoma
Conditions: IL therapy, prior reports; cited from earlier work

Substance: interleukin-2: IL interleukin-2 therapy
- complete response (CR): 62%
- objective response rate (ORR): 83%
- partial response (PR): 21%
